Assay results as given in publication PMC7382816 (BMC Pharmacology & Toxicology, 2020).

Assay: Single-dose pharmacokinetics in healthy volunteers under fasting and fed (high-fat breakfast) conditions, plasma concentrations by HPLC-MS, non-compartmental analysis
Assay type: in vivo, human
Details: mean ± SD; for half-life: human, plasma
Excerpt: The bioequivalence clinical trials were phase I, randomized, open-label, crossover, single-centre, with two periods separated by a 7-day washout stage. Subjects were randomised to one of the two treatment sequences, RT or TR where R was the reference formulation and T was the test formulation. Each of the clinical trial was crossover for evaluation of a test formulation compared to a reference formulation either under fed or fasting conditions. […] The treatments were allocated in a balanced manner on every inclusion day (blocks of 4 subjects). Our study adheres to CONSORT guidelines. […] Sample processing, genotyping for CYP2C19 and drug quantification were performed according to Román et al. […] Pharmacokinetic parameters were estimated from the plasma concentration–time data by non-compartmental analysis (WinNonlin Professional, version 2.0., Pharsight Corporation, USA) as reported by Román et al. […] WinNonLin Professional software version 2.0 was used for the statistical analysis. Pharmacokinetic parameters were log-transformed, and AUC and Cmax were adjusted for dose and weight. The values of pharmacokinetic parameters were expressed as mean ± standard deviation.

half-life (both sexes, po, Fast, all subjects, single oral dose): 1.1 ± 0.6 h
half-life (female, oral, only CYP2C19*1/*1 subjects, Fed, women): 1.1 ± 0.4 h
Tmax (only CYP2C19*1/*1 subjects, Fast, women): 1.5 ± 0.3 h
SMILES: COc1ccc2[nH]c([S+]([O-])Cc3ncc(C)c(OC)c3C)nc2c1 (stereo not drawn) [Omeprazole, omeprazole]
